# Source: PubChem BioAssay AID2599 (Sanford-Burnham Center for Chemical Genomics, 2010)
# Sequences of proteins named here, by UniProt entry; tags and fusion partners are left off. Residues count along the entry.
# UniProt Q9GZR1, 628-1112 limits assumed: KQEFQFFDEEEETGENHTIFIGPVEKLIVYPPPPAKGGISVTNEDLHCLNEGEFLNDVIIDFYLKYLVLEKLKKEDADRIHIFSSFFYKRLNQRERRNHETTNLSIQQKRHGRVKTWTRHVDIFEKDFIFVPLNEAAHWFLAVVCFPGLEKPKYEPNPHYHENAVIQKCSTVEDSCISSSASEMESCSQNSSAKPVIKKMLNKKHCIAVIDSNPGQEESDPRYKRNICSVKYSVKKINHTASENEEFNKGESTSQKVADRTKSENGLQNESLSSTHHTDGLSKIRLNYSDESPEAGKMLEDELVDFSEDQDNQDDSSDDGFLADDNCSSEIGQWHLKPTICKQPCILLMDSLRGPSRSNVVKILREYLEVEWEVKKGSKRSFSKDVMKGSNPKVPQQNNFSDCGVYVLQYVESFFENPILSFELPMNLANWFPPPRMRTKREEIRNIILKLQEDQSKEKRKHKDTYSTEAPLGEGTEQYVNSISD
# The entries are a selection whose mix differs from that of the whole data set. Active and inactive are the calls of the source.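 Rule for the calls: active = inhibition above about 50% at the single tested dose (limit read from the data); inactive = the rest.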
# Target: Sentrin-specific protease 6 (Homo sapiens) (UniProt Q9GZR1)
# Assay: inhibition of human SENP6 catalytic domain – biochemical, luminescence, uHTS, primary screen (AID 2599);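 note: plate controls were DMSO wells with enzyme for no effect and DMSO wells lacking enzyme for full effect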
# Conditions: Recombinant SENP6 catalytic domain, aminoluciferin luminescence; at 10 µM; stronger effect = higher value
row,SMILES,inhibition
1,COc1ccc(C(=O)NCC2(N3CCCCC3)CCCCC2)c(OC)c1OC,inactive: -14.1%
2,COc1ccc(C(=O)NCC2(N3CCCCC3)CCCCC2)cc1,inactive: -5.84%
3,O=C(NCC1(N2CCCCC2)CCCCC1)c1cccs1,inactive: 2.21%
4,O=C(NCC1(N2CCCCC2)CCCCC1)c1ccc(=O)[nH]c1,inactive: -15.6%
5,Cc1ccc(OCC(C)C)c(CN(CCCl)CCCl)c1,inactive: 0.083%
6,CCOC(=O)N1CCC(Nc2cccc(C)c2)CC1,inactive: 10.5%
7,CCOC(=O)N1CCC(Nc2ccc(F)cc2)CC1,inactive: 3.76%
8,COc1ccc(NC2CCN(CCc3ccccc3)CC2)c(OC)c1,inactive: -9.14%
9,CCCCOc1ccc(C(=O)NCC2(N3CCOCC3)CCCCC2)cc1,inactive: 2.39%
10,O=C(NCC1(N2CCCCC2)CCCCC1)c1ccc(F)cc1,inactive: -13.7%
11,CCOc1ccc(C)cc1CN(CCCl)CCCl,inactive: -14.5%
12,CN(C)c1ccc(C(=O)NCC2(N3CCCCC3)CCCCC2)cc1,inactive: -12.2%
13,O=C(NCC1(N2CCCCC2)CCCCC1)c1ccco1,inactive: -6.9%
14,CCN1CCC(Nc2cccc(F)c2)CC1,inactive: 2.89%
15,Fc1ccccc1NC1CCN(Cc2ccccc2)CC1,inactive: -82.2%
16,Cc1ccc(C(=O)NCC2(N3CCCCC3)CCCCC2)o1,inactive: 0.055%
17,COc1cc(OC)cc(C(=O)NCC2(N3CCCCC3)CCCCC2)c1,inactive: -1.54%
18,CN1CCC(Nc2ccc(Cl)cc2)CC1,inactive: -5.07%
19,CCCOc1ccc(C)cc1CN(CCCl)CCCl,inactive: -10.6%
20,COc1cccc(C(=O)N(c2cc(C)cc(C)c2)C2CCN(C(=O)OC(C)(C)C)CC2)c1,inactive: 7.35%

row,SMILES,inhibition
1,COc1cc(OC)cc(C(=O)NCC2(N3CCOCC3)CCCCC2)c1,inactive: -21.4%
2,CCC(CO)(C(=O)OC1CN2CCC1CC2)c1ccccc1 (centres undefined),inactive: -0.675%
3,O=C(O)C1(Nc2ccccc2)CCN(Cc2ccccc2)CC1,inactive: -17.7%
4,CC(C)(C)OC(=O)N1CCC(Nc2ccccc2)CC1,inactive: -5.12%
5,CCCOc1ccc(C(=O)NCC2(N(C)C)CCCCC2)cc1,inactive: -8.8%
6,CN1CCC(Nc2ccc(F)c(Cl)c2)CC1,inactive: -6.48%
7,CCOc1ncccc1C(=O)NCC1(N2CCOCC2)CCCCC1,inactive: 9.72%
8,CCc1cc(C(=O)NCC2(N3CCCCC3)CCCCC2)sc1C,inactive: 3.59%
9,O=C(OC1CN2CCC1CC2)C1c2ccccc2C=Cc2ccccc21 (centres undefined),inactive: -17.2%
10,CCOC(=O)N1CCC(Nc2ccc(C)cc2)CC1,inactive: 14.7%
11,N/C(=N\O)c1c(N)no[n+]1[O-],inactive: -13.6%
12,COc1ccc(C(=O)NCC2(N3CCOCC3)CCCCC2)cc1OC,inactive: -8.37%
13,COc1cc(C(=O)NCC2(N3CCOCC3)CCCCC2)cc(OC)c1C,inactive: 0.274%
14,O=C(NCC1(N2CCOCC2)CCCCC1)c1cc(Br)ccc1Cl,inactive: -25.2%
15,CN(C)C1(CNC(=O)c2cccc(C#N)c2)CCCCC1,inactive: 16.7%
16,CCCN1CCC(Nc2cc(OC)cc(OC)c2)CC1,inactive: -6.48%
17,c1ccc(CN2CCC(Nc3ccccc3)CC2)cc1,inactive: 3.69%
18,N#Cc1ccc(C(=O)NCC2(N3CCCCC3)CCCCC2)cc1,inactive: 27.2%
19,CC(C)(C)OC(=O)N1CCC(N(C(=O)c2ccccc2)c2ccc(Cl)cc2)CC1,inactive: -4.94%
